From US9822179B2, “Recombinant TNF ligand family member polypeptides with antibody binding domain and uses therefor” (UNIVERSITAT STUTTGART, priority 2011, dated 2017)

Tests used:
[1] = test system: Colo205 cells; assay: Growth of Colo205 cells over four days, MTT; type: cell-based; conditions: 4-day culture, 50 ng/ml EGF, 10 ng/ml bortezomib
Experimental: (§1) After 16 h, cell viability was determined using MTT staining (Colo 205) or crystal violet staining (Huh-7) and data were normalized using bortezomib-treated cells as control (mean SEM, n=3). (B) 1×10^4 Colo205 cells per well were grown in 96-well plates using medium with 0.1% FCS. […] (C) 1×10^4 Huh-7 cells per well were grown in 96-well plates and treated with 20 ng/ml bortezomib or with a combination of bortezomib and 10 μM zVADfmk.

[2] = test system: Huh-7 cells; assay: Growth of Huh-7 cells over three days, MTT; type: cell-based; conditions: 20 ng/ml bortezomib
Experimental: as §1

For Cetuximab [reference compound], the “effect on growth of cells” value [1] was “did not substantially affect growth” and the “effect on growth of cells” value [2] was “did not substantially affect growth”.
